Curated experimental data: logP (octanol/water) values

Data: OPERA 2.9 data sets, kmansouri/OPERA on GitHub.

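These are experimental values that the OPERA curators gathered from public databases to train and test their QSAR models. The files give a single number for a compound and property, which may rest on several reports. How each value was measured is not recorded, so precision varies. Where a salt, mixture or single isomer is drawn, the source does not say that exactly this form was tested. Some entries may be limits or estimates that an upstream database listed as plain numbers.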

logP is the log10 of the octanol-water partition coefficient; higher is more lipophilic.
Cells with "–" have no entry in this list.

| SMILES | name | logP (octanol/water) |
|---|---|---|
| CCOC(=O)CC(C)C | Ethyl isovalerate | 2.47 |
| CNCCCC12CCC(c3ccccc31)c1ccccc12 | Maprotiline | 5.1 |
| O=C(O)CC(C(=O)O)c1ccccc1 (stereo unspecified) | Butanedioic acid, 2-phenyl- | 1.03 |
| Cc1ccc(S(=O)(=O)Oc2ccc(/N=N/c3cccc(Nc4ccc(S(=O)(=O)[O-])cc4[N+](=O)[O-])c3)c(C)c2)cc1.[Na+] | C.I. Acid Orange 67 | 1.03 |
| Cc1ccc(Nc2ccc(O)c3c2C(=O)c2ccccc2C3=O)cc1 | D&C Violet 2 | 4.26 |
| CN(/N=C/c1cc[n+](C)cc1)c1ccccc1.COS(=O)(=O)[O-] | – | 0.02 |
| CC(=O)CC(=O)Nc1ccccc1Cl | 2'-Chloroacetoacetanilide | 1.32 |
| O=C(CCS)OCCOC(=O)CCS | 1,2-Ethanediyl 3'-mercaptopropionate | 1.94 |
| Cn1c(N)cc(=O)n(C)c1=O | – | -0.42 |
| CCOc1ccc(Nc2ccc(S(=O)(=O)N(C)C)cc2[N+](=O)[O-])cc1 | – | 1.386 |
| CC(C)OCC1CO1 (stereo unspecified) | Isopropyl glycidyl ether | 0.5 |
| C=CC(C)(CCC=C(C)CC)OC(C)=O (stereo unspecified) | 1,6-Nonadien-3-ol, 3,7-dimethyl-, 3-acetate | 4.4 |
| CC(C#N)(CCC(=O)O)N=NC(C)(C#N)CCC(=O)O (stereo unspecified) | 4,4'-Diazene-1,2-diylbis(4-cyanopentanoic acid) | 0.8 |
| CCCCOC(=O)CCC(C)=O | Butyl 4-oxopentanoate | 1.435 |
| CC(=O)OC1CC2CC1C1CC=CC21 (stereo unspecified) | Jasmacyclen | 3.9 |
| CCCCCCCCCCC1CO1 (stereo unspecified) | 1,2-Epoxydodecane | 5.9 |
| O=C(c1ccccc1)C1(F)C=CC(F)=CC1 (stereo unspecified) | (1,4-Difluorocyclohexa-2,4-dien-1-yl)(phenyl)methanone | 3.8 |
| CCCC1CC=C(C)C(=O)C1 (stereo unspecified) | 2-Methyl-5-propylcyclohex-2-en-1-one | 3.2 |
| O=C(CO)[C@@H](O[C@H]1O[C@H](CO)[C@@H](O)[C@H](O)[C@H]1O)[C@H](O)[C@H](O)CO | D-Fructose, 3-O-.alpha.-D-glucopyranosyl- | -4.8 |
| CCCCC(CC)C(=O)OCC (stereo unspecified) | Hexanoic acid, 2-ethyl-, ethyl ester | 3.9 |
| O=C1c2ccccc2C(=O)c2c(Cl)cccc21 | 1-Chloroanthraquinone | 3.98 |
| CCN(CC)c1ccc2cc(-c3nc4cc(S(N)(=O)=O)ccc4o3)c(=O)oc2c1 | – | 2.246 |
| Fc1ccc(C(F)(F)F)cc1Cl | Benzene, 2-chloro-1-fluoro-4-(trifluoromethyl)- | 3.88 |
| CCn1cc[n+](C)c1.F[B-](F)(F)F | 1-Ethyl-3-methylimidazolium tetrafluoroborate | 0.012 |
| CCCCC1CCC(C2CCC(CCC)CC2)CC1 (stereo unspecified) | – | 4.4 |
| CCCCCO[C@@H]1O[C@@H](C)[C@H](O)[C@@H](O)[C@H]1O | Pentyl 6-deoxy-alpha-L-mannopyranoside | 0.74 |
| O=C([O-])c1cc(/N=N/c2ccc(/N=N/c3ccc(O)c(C(=O)[O-])c3)c(S(=O)(=O)[O-])c2)ccc1O.[Na+].[Na+].[Na+] | – | -4.45 |
| CCCCCOC(=O)Nc1nc(=O)n([C@@H]2O[C@H](C)[C@@H](O)[C@H]2O)cc1F | Capecitabine | 0.4 |
| C[C@H](/C=C/[C@H](C)C(C)(C)O)[C@H]1CC[C@H]2/C(=C/C=C3C[C@@H](O)C[C@H](O)C3)CCC[C@]12C | Paricalcitol | 4.5 |
| CC(=O)CC(=O)Nc1ccc(C)cc1C | N-(2,4-Dimethylphenyl)-3-oxobutanamide | 1.45 |
| O=c1c2ccccc2ccc2ccccc12 | 5H-Dibenzo[a,d]cyclohepten-5-one | 3.508 |
| NS(=O)(=O)c1cc(C(=O)O)ccc1Cl | Sulfamido-3-chlorobenzoic acid | 0.881 |
| O=S(=O)(N(CCO)CCO)C(F)(F)C(F)(F)C(F)(F)C(F)(F)F | N,N-Bis(2-hydroxyethyl)perfluorobutanesulfonamide | 2.69 |
| CC[C@]1(C/C=C2\CCCc3cc(OC)ccc32)C(=O)CC[C@@H]1O | – | 3.6 |
| Nc1ncnc2c1nc(SCc1ccccc1)n2[C@@H]1O[C@@H]2COP(=O)(O)O[C@H]2[C@H]1O | – | -1.15 |
| C1CN(CCOCCN2CCOCC2)CCO1 | 4,4'-(Oxydiethylene)bis(morpholine) | 0.5 |
| COC1=CCC2=C(CC[C@@H]3[C@@H]2CC[C@]2(C)[C@@H](O)CC[C@@H]32)C1 | 1,4-Dihydroestradiol 3-methyl ether | 5.62 |
| CCOCC(C)OC(C)=O (stereo unspecified) | 1-Ethoxypropan-2-yl acetate | 0.76 |
| CC(C)COc1ccc2ccccc2c1 | 2-(2-Methylpropoxy)naphthalene | 5.1 |
| Cc1ccc(C(=O)Nc2ccc(S(=O)(=O)[O-])cc2)cc1N.[Na+] | – | -2.71 |
| C[C@@H]1C[C@H]2[C@@H]3CCC4=CC(=O)C=C[C@]4(C)[C@@]3(F)[C@@H](O)C[C@]2(C)[C@@]1(O)C(=O)COC(=O)C(C)(C)C | Dexamethasone pivalate | 3.9 |
| O=S(=O)(CCO)CCO | 2,2'-Sulfonyl bisethanol | -2.06 |
| NC(=O)c1ccc[n+](C2OC(COP(=O)([O-])OP(=O)(O)OCC3OC(n4cnc5c(N)ncnc54)C(OP(=O)([O-])[O-])C3O)C(O)C2O)c1.[Na+].[Na+] (stereo unspecified) | Disodium NADP | -4.4 |
| CCOc1ccc(-c2ccc(C)cc2)c(F)c1F | – | 5.2 |
| C=CC(C)CCCC(C)(C)OC(C)=O (stereo unspecified) | 2,6-Dimethyloct-7-en-2-yl acetate | 4.9 |
| C[N+](C)=CCC(O)CC(=N)[O-].Cl (stereo unspecified) | – | -4 |
| CCCCN(CCC(=O)OCC)C(C)=O | Ethyl 3-(N-butylacetamido)propionate | 1.7 |
| NCCCNCCNCCCN | N,N'-Bis(3-aminopropyl)ethylenediamine | -1.55 |
| CC1(C)C(/C=C(\Cl)C(F)(F)F)C1C(=O)[O-].[K+] (stereo partly drawn) | – | 1.1 |

A selection of 3 entries from above:

| SMILES | name | logP (octanol/water) |
|---|---|---|
| Nc1ncnc2c1nc(SCc1ccccc1)n2[C@@H]1O[C@@H]2COP(=O)(O)O[C@H]2[C@H]1O | – | -1.15 |
| CC(=O)CC(=O)Nc1ccc(C)cc1C | N-(2,4-Dimethylphenyl)-3-oxobutanamide | 1.45 |
| Fc1ccc(C(F)(F)F)cc1Cl | Benzene, 2-chloro-1-fluoro-4-(trifluoromethyl)- | 3.88 |